# Assay results taken from publication PMC2855817 (Biochemistry, 2010).
# “And” between values parts separate entries of the source, which are not always exact repeats. Equal entries are not always repeated.
# Test system: COC(C)=O
# Test: purified protein
# Conditions: pH 7.2, 5 mM BES, 23 °C
substance,measurement,value
PFE (Pseudomonas fluorescens esterase; aryl esterase) (Pseudomonas fluorescens; L30P),Km,43 ± 3 mM and 50 ± 5 mM
same,kcat/Km,600 M⁻¹ s⁻¹ and 200 M⁻¹ s⁻¹
